Patent US20190031718A1

Tests used:
CBS-myoglobin [1] = assay: BLI, dissociation in buffer with EDTA
CBS-myoglobin [2] = assay: BLI, biotinylated CPP-adapter on streptavidin sensors, CBS-myoglobin as analyte (1 µM to 63 nM), one-state association-then-dissociation fit
CBS-myoglobin [3] = assay: BLI, sensor exposed to the highest analyte concentration, then dipped into buffer with EDTA

Q: What does the source list for SAP-CaM?
A: koff (EDTA) (CBS-myoglobin [1]): 0.1 s⁻¹; Kd (CBS-myoglobin [2]): 20.6 nM; koff (CBS-myoglobin [2]): 0.00017 s⁻¹; kon (CBS-myoglobin [2]): 8300 M⁻¹ s⁻¹; koff (EDTA) (CBS-myoglobin [3]): 0.11 s⁻¹
